{"source": "PubChem BioAssay AID504437", "about": "(Emory University Molecular Libraries Screening Center, 2011)", "note": "Only a part is listed here, and it is no random draw. Calls of active or inactive are those of the source.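 The calls were made as follows: active = mean of three repeat readings of reporter signal inhibition above a set limit (cut at about 70% in these data); inactive = the rest.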"}
{"assay": "retest of CHOP induction inhibitors, confirmation, cell-based (AID 504437);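 also: 0% = tunicamycin plus vehicle and 100% = wells lacking tunicamycin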", "settings": "CHO-CHOP promoter luciferase reporter, tunicamycin-induced, luminescence; at 10 µM; hits give high values"}
{"smiles": "CCc1nc2c(n1)c1c(non1O)c1c2no[n+]1[O-]", "inhibition": "inactive: 65%"}
